Assay results: PMC7799360, “Reprogramming immunosuppressive myeloid cells facilitates immunotherapy for colorectal cancer” (EMBO Molecular Medicine, 2020)

Target: T1, ADORA2B (Homo sapiens, UniProt P29275)
T1 sequence (P29275 1-332): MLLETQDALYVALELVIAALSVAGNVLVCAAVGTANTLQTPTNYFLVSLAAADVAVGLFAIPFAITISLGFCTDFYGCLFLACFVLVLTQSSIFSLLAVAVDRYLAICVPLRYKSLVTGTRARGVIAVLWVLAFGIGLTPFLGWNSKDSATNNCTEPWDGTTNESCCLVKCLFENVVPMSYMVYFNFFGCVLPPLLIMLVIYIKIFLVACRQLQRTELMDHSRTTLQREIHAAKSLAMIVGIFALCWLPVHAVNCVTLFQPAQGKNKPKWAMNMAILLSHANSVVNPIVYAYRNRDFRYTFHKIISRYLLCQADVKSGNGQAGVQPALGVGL
Assay: LANCE Ultra cAMP assay
Details: read-out: IC50 (known antagonists, TP-16)

SMILES: CCCn1c(=O)c2[nH]c(-c3ccc(OCC(=O)Nc4ccc(C#N)cc4)cc3)nc2n(CCC)c1=O [reference compound]
- IC50: 0.99 µM
